In patent US20060094649A1, “Hla-a1,-a2,-a3,-a24,-b7, and-b44 tumor associated antigen peptides and compositions” (priority 2002, published 2006):
Like-named read-outs stand apart in the source and are kept apart here.

What was measured:
[1] = tested on: HLA-B7 supertype molecules; experiment: HLA-B7 supertype cross-binding (B*0702, B*3501, B*5101, B*5301, B*5401); conditions: for No. B7 supertype alleles crossbound (200): Table 21, binding affinity threshold of 200 nM or less
HLA-B*4402 = HLA-B*4402 (Homo sapiens, UniProt P01889, A223V/A65T/A93T/A95T/D201E/D98Y/E176V/E187L/E204Q/E69K/G107R/H137Y/K202T/L105A/L119I/N104T/N87E/Q56L/Q94N/R106L/R155S/R180D/S101N/S121R/S35A/S48T/T118I/V36M/W191S/Y140D/Y91S); experiment: Class I peptide-binding assay, HLA-B*4402 (B44 supertype); conditions: read-out: B*4402
HLA-B*4501 = HLA-B*4501 (Homo sapiens, UniProt P01889, A329T/A65T/A93T/A95T/C349S/D138N/D201E/D98Y/E176V/E187L/E204Q/E69K/H137Y/K202T/L119W/N87E/Q56L/Q94N/R155S/R180D/S121R/S35A/S48T/V127L/V306I/V36M/W191S/Y140L/Y33H/Y91S); experiment: Class I peptide-binding assay, HLA-B*4501 (B44 supertype); conditions: read-out: B*4501
[2] = tested on: HLA-B44 supertype molecules; experiment: HLA-B44 supertype cross-binding; set-up: species or system human; conditions: number of the six B44 supertype alleles bound
HLA-B*4002 = HLA-B*4002 (Homo sapiens, UniProt P01889, A65T/A93T/A95T/D138N/D201E/D98Y/E176V/E204Q/E69K/K202T/N87E/Q56L/Q94N/R180L/S48T/Y33H/Y91S); experiment: Class I peptide-binding assay, HLA-B*4002 (B44 supertype); conditions: read-out: B*4002
HLA-B*4001 = HLA-B*4001 (Homo sapiens, UniProt P01889, A65T/A93T/A95T/D138N/D98Y/E176V/E69K/N87E/Q56L/Q94N/R180L/S121R/S35A/S48T/T167S/V36M/W171L/Y33H/Y91S); experiment: Class I peptide-binding assay, HLA-B*4001 (B44 supertype); conditions: read-out: B*4001
[3] = p53-derived B44 peptides, Table 28, dash cells
[4] = MAGE2-derived B44 peptides, Table 29, dash cells

SMILES: C[C@H](N)C(=O)N1CCC[C@H]1C(=O)N[C@@H](C)C(=O)N[C@@H](C)C(=O)N1CCC[C@H]1C(=O)N[C@H](C(=O)N1CCC[C@H]1C(=O)N[C@@H](C)C(=O)N[C@@H](C)C(=O)O)[C@@H](C)O
- Number of B7 alleles crossbound ([1]; Table 17d): 3

SMILES: CC[C@H](C)[C@H](NC(=O)[C@H](CO)NC(=O)[C@@H]1CCCN1C(=O)[C@H](C)NC(=O)[C@@H]1CCCN1C(=O)[C@H](C)NC(=O)[C@@H]1CCCN1C(=O)[C@H](C)N)C(=O)O
- Number of B7 alleles crossbound [1]: 3

SMILES: C[C@H](N)C(=O)N1CCC[C@H]1C(=O)N[C@@H](C)C(=O)N1CCC[C@H]1C(=O)N[C@@H](C)C(=O)N1CCC[C@H]1C(=O)N[C@@H](CO)C(=O)N[C@@H](Cc1c[nH]c2ccccc12)C(=O)O
- Number of B7 alleles crossbound ([1]; Table 17d): 3

SMILES: CC[C@H](C)[C@H](NC(=O)[C@@H]1CCCN1C(=O)[C@H](Cc1ccc(O)cc1)NC(=O)[C@H](CC(N)=O)NC(=O)[C@H](CCSC)NC(=O)[C@@H](NC(=O)[C@@H](NC(=O)[C@@H]1CCCN1C(=O)[C@@H](N)CC(C)C)[C@@H](C)CC)[C@@H](C)O)C(=O)O
- No. B7 supertype alleles crossbound (200) [1]: 4

SMILES: CC[C@H](C)[C@H](NC(=O)[C@@H](NC(=O)[C@H](CS)NC(=O)[C@@H](NC(=O)[C@@H]1CCCN1C(=O)[C@@H]1CCCN1C(=O)[C@H](CCC(N)=O)NC(=O)[C@@H]1CCCN1C(=O)[C@@H](N)CC(C)C)[C@@H](C)CC)[C@@H](C)O)C(=O)O
- No. B7 supertype alleles crossbound (200) [1]: 4

SMILES: CC[C@H](C)[C@H](NC(=O)[C@@H]1CCCN1C(=O)[C@H](Cc1ccc(O)cc1)NC(=O)[C@H](CC(N)=O)NC(=O)[C@H](CCSC)NC(=O)[C@@H](NC(=O)[C@@H](NC(=O)[C@@H]1CCCN1C(=O)[C@@H](N)CC(C)C)[C@@H](C)O)[C@@H](C)O)C(=O)O
- Number of B7 alleles crossbound ([1]; Table 17c, affinity ≦500 nM): 5

SMILES: CSCC[C@H](NC(=O)[C@@H](NC(=O)[C@@H](NC(=O)[C@@H]1CCCN1C(=O)[C@@H](N)CC(C)C)[C@@H](C)O)[C@@H](C)O)C(=O)N[C@@H](CC(N)=O)C(=O)N[C@@H](Cc1ccc(O)cc1)C(=O)N1CCC[C@H]1C(=O)N[C@@H](CC(C)C)C(=O)O
- Number of B7 alleles crossbound ([1]; Table 17c, affinity ≦500 nM): 3

SMILES: CC[C@H](C)[C@H](NC(=O)[C@H](CC(C)C)NC(=O)[C@H](CC(C)C)NC(=O)CNC(=O)[C@H](C)NC(=O)[C@H](CCCCN)NC(=O)[C@@H]1CCCN1C(=O)[C@@H](N)CCSC)C(=O)O
- Number of B7 alleles crossbound ([1]; Table 17c, affinity ≦500 nM): 4

SMILES: CC[C@H](C)[C@H](NC(=O)[C@@H](NC(=O)[C@@H](NC(=O)[C@H](CC(C)C)NC(=O)[C@H](CC(C)C)NC(=O)CNC(=O)[C@H](C)NC(=O)[C@H](CCCCN)NC(=O)[C@@H]1CCCN1C(=O)[C@@H](N)CCSC)[C@@H](C)CC)[C@@H](C)CC)C(=O)O
- Number of B7 alleles crossbound ([1]; Table 17c, affinity ≦500 nM): 4
- No. B7 supertype alleles crossbound (200) [1]: 3

SMILES: CC[C@H](C)[C@H](NC(=O)[C@@H](NC(=O)[C@H](CC(C)C)NC(=O)[C@H](CC(C)C)NC(=O)CNC(=O)[C@H](C)NC(=O)[C@@H](NC(=O)[C@@H]1CCCN1C(=O)[C@@H](N)CCSC)C(C)C)[C@@H](C)CC)C(=O)O
- Number of B7 alleles crossbound ([1]; Table 17c, affinity ≦500 nM): 5

SMILES: CC(C)C[C@H](NC(=O)[C@H](Cc1ccc(O)cc1)NC(=O)[C@@H](NC(=O)[C@@H](NC(=O)[C@H](CC(N)=O)NC(=O)[C@H](CCC(N)=O)NC(=O)[C@H](C)NC(=O)[C@H](CCC(=O)O)NC(=O)[C@@H]1CCCN1)[C@@H](C)O)[C@@H](C)O)C(=O)O
- IC50 (HLA-B*4402; CEA-derived B44 peptides): > 10 µM
- IC50 (HLA-B*4501; CEA-derived B44 peptides): > 10 µM
- Degeneracy [2]: 0

SMILES: CC[C@H](C)[C@H](NC(=O)[C@H](CCC(=O)O)NC(=O)[C@@H]1CCCN1)C(=O)N[C@@H](CCC(N)=O)C(=O)N[C@@H](CC(N)=O)C(=O)N[C@H](C(=O)N[C@H](C(=O)N[C@@H](Cc1ccc(O)cc1)C(=O)O)[C@@H](C)O)[C@@H](C)O
- IC50 (HLA-B*4002; CEA-derived B44 peptides): > 10 µM
- IC50 (HLA-B*4402; CEA-derived B44 peptides): > 10 µM
- IC50 (HLA-B*4501; CEA-derived B44 peptides): > 10 µM
- Degeneracy [2]: 0

SMILES: CC[C@H](C)[C@H](NC(=O)[C@H](CO)NC(=O)[C@@H]1CCCN1C(=O)[C@H](CCCCN)NC(=O)[C@@H]1CCCN1C(=O)[C@H](CC(C)C)NC(=O)[C@H](CCC(=O)O)NC(=O)[C@@H]1CCCN1)C(=O)O
- IC50 (HLA-B*4001; CEA-derived B44 peptides): > 10 µM
- IC50 (HLA-B*4002; CEA-derived B44 peptides): > 10 µM
- IC50 (HLA-B*4402; CEA-derived B44 peptides): > 10 µM
- IC50 (HLA-B*4501; CEA-derived B44 peptides): > 10 µM
- Degeneracy [2]: 0

SMILES: CC[C@H](C)[C@H](NC(=O)[C@H](CC(C)C)NC(=O)[C@@H](NC(=O)[C@H](Cc1ccc(O)cc1)NC(=O)[C@H](CC(C)C)NC(=O)[C@H](Cc1c[nH]cn1)NC(=O)[C@H](CO)NC(=O)[C@@H](NC(=O)[C@@H]1CCCN1C(=O)[C@@H](N)C(C)C)[C@@H](C)CC)[C@@H](C)CC)C(=O)O
- Number of B7 alleles crossbound ([1]; Table 17c, affinity ≦500 nM): 3

SMILES: CC[C@H](C)[C@H](NC(=O)[C@H](Cc1ccc(O)cc1)NC(=O)[C@H](CC(C)C)NC(=O)[C@H](Cc1c[nH]cn1)NC(=O)[C@H](CO)NC(=O)[C@@H](NC(=O)[C@@H]1CCCN1C(=O)[C@@H](N)C(C)C)[C@@H](C)CC)C(=O)N[C@@H](CC(C)C)C(=O)N[C@H](C(=O)O)C(C)C
- Number of B7 alleles crossbound ([1]; Table 17c, affinity ≦500 nM): 2

SMILES: CC[C@H](C)[C@H](NC(=O)[C@H](Cc1ccc(O)cc1)NC(=O)[C@H](CC(C)C)NC(=O)[C@H](CCSC)NC(=O)[C@H](CO)NC(=O)[C@@H](NC(=O)[C@@H]1CCCN1C(=O)[C@@H](N)C(C)C)[C@@H](C)CC)C(=O)N[C@@H](CC(C)C)C(=O)O
- Number of B7 alleles crossbound ([1]; Table 17c, affinity ≦500 nM): 3

SMILES: CC[C@H](C)[C@H](NC(=O)[C@H](CO)NC(=O)[C@H](CCC(N)=O)NC(=O)[C@H](CO)NC(=O)[C@H](Cc1c[nH]c2ccccc12)NC(=O)[C@H](CC(C)C)NC(=O)[C@@H]1CCCN1C(=O)[C@@H](N)Cc1ccc(O)cc1)C(=O)O
- Number of B7 alleles crossbound ([1]; Table 17c, affinity ≦500 nM): 4

SMILES: CC[C@H](C)[C@H](NC(=O)[C@H](CC(C)C)NC(=O)[C@H](CC(C)C)NC(=O)[C@H](CO)NC(=O)[C@H](C)NC(=O)[C@H](CC(N)=O)NC(=O)[C@@H]1CCCN1C(=O)[C@@H](N)Cc1ccc(O)cc1)C(=O)O
- No. B7 supertype alleles crossbound (200) [1]: 4

SMILES: CC[C@H](C)[C@H](NC(=O)[C@@H]1CCCN1C(=O)[C@@H](N)C(C)C)C(=O)N[C@@H](CO)C(=O)N[C@@H](Cc1c[nH]cn1)C(=O)N[C@@H](CC(C)C)C(=O)N[C@@H](Cc1ccc(O)cc1)C(=O)N[C@@H](C)C(=O)N[C@@H](CC(C)C)C(=O)O [VPISHLYAL]
- Number of B7 alleles crossbound ([1]; Table 17c, affinity ≦500 nM): 3

SMILES: CC[C@H](C)[C@H](N)C(=O)N1CCC[C@H]1C(=O)N[C@@H](Cc1c[nH]c2ccccc12)C(=O)N[C@@H](CCC(N)=O)C(=O)N[C@@H](CCCNC(=N)N)C(=O)N[C@@H](CC(C)C)C(=O)N[C@@H](CC(C)C)C(=O)N[C@@H](CC(C)C)C(=O)N[C@H](C(=O)N[C@@H](C)C(=O)O)[C@@H](C)O [compound 129]
- Number of B7 alleles crossbound ([1]; Table 17a, CEA-derived): 2

SMILES: CC(C)[C@H](NC(=O)[C@@H]1CCCN1C(=O)[C@@H]1CCCN1C(=O)[C@H](C)NC(=O)[C@H](C)NC(=O)[C@H](CCC(=O)O)NC(=O)[C@@H]1CCCN1)C(=O)O [compound 640]
- IC50 (HLA-B*4001; [3]): > 10 µM
- IC50 (HLA-B*4002; [3]): > 10 µM
- IC50 (HLA-B*4402; [3]): > 10 µM
- IC50 (HLA-B*4501; [3]): > 10 µM
- Degeneracy ([2]; p53-derived B44 peptides, Table 28): 0

SMILES: CC(C)C[C@H](NC(=O)[C@H](C)NC(=O)[C@H](CCC(=O)O)NC(=O)CNC(=O)[C@H](CCCNC(=N)N)NC(=O)[C@H](C)NC(=O)[C@H](CCC(=O)O)NC(=O)[C@@H](N)CC(C)C)C(=O)O [compound 668]
- IC50 (HLA-B*4402; [4]): > 10 µM
- IC50 (HLA-B*4501; [4]): > 10 µM

SMILES: CC(C)C[C@H](N)C(=O)N[C@@H](CCC(=O)O)C(=O)N[C@H](C(=O)N[C@@H](Cc1ccccc1)C(=O)N[C@@H](CCC(=O)O)C(=O)NCC(=O)N[C@@H](CCCNC(=N)N)C(=O)N[C@@H](CCC(=O)O)C(=O)N[C@@H](CC(=O)O)C(=O)N[C@@H](CO)C(=O)N[C@H](C(=O)O)C(C)C)C(C)C [compound 703]
- IC50 (HLA-B*4402; [4]): > 10 µM
- IC50 (HLA-B*4501; [4]): > 10 µM

SMILES: CC[C@H](C)[C@H](NC(=O)[C@H](Cc1c[nH]cn1)NC(=O)[C@@H]1CCCN1C(=O)[C@H](CCC(=O)O)NC(=O)CN)C(=O)N[C@@H](CO)C(=O)N[C@@H](Cc1ccc(O)cc1)C(=O)O [compound 711]
- IC50 (HLA-B*4402; [4]): > 10 µM
- IC50 (HLA-B*4501; [4]): > 10 µM

SMILES: NC(=O)CC[C@H](NC(=O)[C@H](CC(N)=O)NC(=O)[C@H](CO)NC(=O)[C@H](CO)NC(=O)CNC(=O)[C@H](CCC(=O)O)NC(=O)[C@@H](N)CC(=O)O)C(=O)N[C@@H](CCC(=O)O)C(=O)N[C@@H](CCC(=O)O)C(=O)N[C@@H](CCC(=O)O)C(=O)NCC(=O)O [compound 714]
- IC50 (HLA-B*4001; [4]): > 10 µM
- IC50 (HLA-B*4002; [4]): > 10 µM
- IC50 (HLA-B*4402; [4]): > 10 µM
- IC50 (HLA-B*4501; [4]): > 10 µM
